Among the data in patent US20250313569A1, “Pharmaceutical Compounds And Compositions As Modulators Of MAS-Related G-Protein Receptor X2” (Enanta Pharmaceuticals, Inc., priority 2024, published 2025) are EC50 values, retold here.

The chains behind the UniProt entries cited, without tags or fusion partners.
UniProt Q96LB1, whole entry: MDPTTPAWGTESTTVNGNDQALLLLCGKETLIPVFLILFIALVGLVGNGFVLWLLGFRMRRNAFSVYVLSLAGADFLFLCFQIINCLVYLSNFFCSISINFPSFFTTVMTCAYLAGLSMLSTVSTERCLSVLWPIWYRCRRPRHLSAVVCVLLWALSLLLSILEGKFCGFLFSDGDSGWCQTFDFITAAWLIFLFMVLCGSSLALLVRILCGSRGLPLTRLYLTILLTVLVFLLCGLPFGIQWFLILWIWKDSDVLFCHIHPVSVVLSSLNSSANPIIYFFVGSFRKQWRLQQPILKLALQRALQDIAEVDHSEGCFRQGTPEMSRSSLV

One experiment addresses human MRGPRX2 (Homo sapiens, UniProt Q96LB1). As to the kind of experiment: MRGPRX2 IP-1 Gq HTRF assay in HEK293 cells stably expressing human MRGPRX2, Cortistatin-14 at EC75. The conditions noted are these: read-out: MRGPRX2 IP-1 Gq HTRF EC50, 2 hours at 37° C., cellular IP-1. As to the method:
HEK293 cells stably expressing human MRGPRX2 were grown in Dulbecco's Modified Eagle Medium (DMEM) supplemented with 10% fetal bovine serum (FBS), 1% Glutamax, and 1 μg/mL of puromycin. Cells were maintained in a 37° C., 5% CO2 humidified incubator.
Cells were plated in a 384-well assay plate at a density of 20,000 cells per well overnight. Compounds were solubilized at 10 mM in DMSO and added as a 10-point curve using an ECHO acoustic liquid handler. On the day of the assay, Cortistatin-14 was diluted in assay buffer (provided by IP-One-Gq-HTRF kit purchased from Cisbio, 62IPAPEJ) and added to the assay plate at a final concentration corresponding to the predetermined EC75. Plates were incubated at 37° C. for 2 hours prior to addition of HTRF detection reagents per the manufacturer's instructions. The plates were read on a Perkin Elmer Envision plate reader. The HTRF ratio and cellular IP-1 levels were calculated. XLfit was used to calculate an EC50 value for each compound using a 4-parameter logistic curve fitting model. EC50 ranges are reported as follows: A<100 nM; B 0.1-1 μM; C>1 μM.
For orientation: Time-resolved FRET reads energy transfer from a long-lived donor to a nearby acceptor.

Another experiment deals with MRGPRX2 LAD2 (Homo sapiens, UniProt Q96LB1). As to the kind of experiment: LAD2 β-hexosaminidase release assay (degranulation), Cortistatin-14 at EC75. The conditions noted are these: read-out: MRGPRX2 LAD2 EC50; LAD2 cells; 1 hour compound incubation, Cortistatin-14 at EC75 for 30 minutes; percent degranulation (β-hexosaminidase). As to the method: LAD2 cells obtained from the NIH were cultured in StemPro34 (Gibco) serum-free media supplemented with GlutaMax, penicillin and streptomycin, and 100 ng/mL SCF (Invitrogen). Cells were maintained in a 37° C., 5% CO2 humidified incubator at a concentration of 2-5E5 cells/mL, with hemidepletion once a week.
One day prior to the assay, cells were starved of SCF at a concentration of 2.3E5 cells/mL. On the day of the assay cells were washed twice in Tyrode's Buffer containing 0.04% BSA (assay buffer) and plated in a 96 well-v-bottom assay plate at 20,000 cells per well in 80 μL of assay buffer. Compounds were solubilized at 10 mM DMSO and added as a 10-fold overconcentrated 8-point curve in assay buffer in a volume of 10 μL using the JANUS liquid handler. Assay plates were incubated for 1 hour at 37° C. Cortistatin-14 was diluted in assay buffer to […] its predetermined EC75 and added to the assay plates in a volume of 10 μL. Assay plates were incubated at 37° C. for 30 minutes. […] The plates were read on a Perkin Elmer Envision plate reader at an Abs of 405 nanometers. Percent degranulation was calculated and Xlfit was used to calculate an EC50 value for each compound using a 4-parameter logistic curve fitting model. […]

Turning to `CS(=O)(=O)Nc1cccc(C(=O)N[C@H]2C[C@@H](Nc3cc(C(F)(F)F)nc4ccc(Cl)cc34)CN(CC(F)(F)F)C2)c1`, the EC50 at human MRGPRX2 was < 0.1 µM.
`O=C(N[C@H]1C[C@@H](Nc2cc(C(F)(F)F)nc3ccc(Cl)cc23)CN(C(=O)C(F)F)C1)c1cn(C[C@H](O)C(F)(F)F)nc1Cl`: the EC50 on MRGPRX2 LAD2 is < 0.1 µM.

As usually defined, the EC50 is the concentration at which the effect is half-maximal.
